One substance from US9381182B2, “Anthranilic acid derivatives: novel inhibitors of advanced glycation end-products (AGEs) formation” (priority 2013, dated 2016) can be followed below.

Data set [1] concerns rat hepatocytes (CC1-Cell line). Description: Fructose-derived AGE-mediated intracellular ROS generation, DCFH-DA technique. In kind it is cell-based. To be noted: 200 μg/mL, no test compound, 24 hours. The procedure: Methodology: DCFH-DA (Dichlorofluorescin diacetate), H2O2 (Hydrogen peroxide), DMSO (Dimethyl sulfoxide) and PBS (Phosphate buffer saline) were obtained from Sigma, St. Louis, Mo., USA. 96-well black fluorescence plates (Tissue culture treated) were purchased from Thermo Fisher Scientific, Waltham, Mass., USA.
Assay Method: Briefly, rat hepatocytes (CC1-Cell line, 6×10^4 cells/mL) were loaded on a black fluorescence 96-well tissue culture treated plate for 24 hours at 37° C. in an incubator, containing 5% CO2. […]
Fluorescence Detection: The intensity of green fluorescence, which is emitted upon the oxidation of the probe in the presence of intracellular ROS, is measured at the excitation and emission wavelength of 490 nm and 520 nm, respectively, by Spectra Max Spectrophotometer, Applied Biosystems, CA, USA.
Estimation of Percentage Inhibition of AGE-Induced Intracellular Generation of ROS by Novel Anthranilic Acid Derivatives: The percentage inhibition of AGEs-mediated intracellular generation of ROS in rat hepatocytes in the presence or absence of novel antiglycation agent, anthranilic acid derivative, was estimated by the following formula. % Inhibition=100−[(Fluorescence of test compound−Fluorescence of blank)/(Fluorescence of control−Fluorescence of blank)×100] […]

Data set [2] has the same test system. Description: AGE-mediated reduced growth of rat hepatocytes, MTT assay. The following applies: 200 μg/mL, no test compound. In kind it is cell-based. The procedure: Methodology: Normal, rat hepatocytes (CC1-Cell line) was purchased from ATCC, Manassas, Va., USA. MEM (Minimum Essential Medium) with L-glutamine, trypsin-EDTA, sodium bicarbonate and penicillin-streptomycin were obtained from Sigma, St. Louis, Mo., USA. 96-well tissue culture treated, sterile, round bottom plates were acquired from Thermo Fisher Scientific, Waltham, Mass., USA. […]
Absorbance Detection: The absorbance of the colored solution was measured at 540 nm by Spectra Max Spectrophotometer, Applied Biosystems, CA, USA.
Estimation of Percentage Inhibition of AGE-Induced Diminished Cellular Proliferation: The percentage inhibition of AGEs-mediated diminished rat hepatocytes proliferation in the presence or absence of novel antiglycation agent, anthranilic acid derivative, was estimated by the following formula. % Inhibition=100−[(Absorbance of test compound−Absorbance of blank)/(Absorbance of control−Absorbance of blank)×100] […]

“HSA: Human serum albumin, unglycated, comparison for AGEs in Tables 2 and 4”: the “Fluorescence (Average), ROS production” value in data set [1] is recorded as 92.3. Moreover, the “% Inhibition of hepatocyte proliferation” value in data set [2] was determined as 15.6%. In addition, the “Absorbance (Average)” value in data set [2] (540 nm) was determined as 1.11.
